Results: patent US11845808B2, “Peptide inhibitors of interleukin-23 receptor and their use to treat inflammatory diseases” (Janssen Biotech, Inc., priority 2020, dated 2023)

Key:
[1] = Stability in cynomolgus monkey fecal homogenate; type: in vitro ADME; details: 20% cynomolgus monkey fecal homogenate, 37° C., 20 μM
[2] = biological target: IL-23 induced IFNγ in natural killer (NK) cells (Homo sapiens, UniProt Q5VWK5); assay: NK cell based assay (IL-23/IL-18 induced IFNγ); details: IL-23 at EC50 to EC75 and IL-18 10 ng/mL, IFNγ in supernatant after 20 to 24 hours
Text: Example 3: NK Cell Based Assay

[3] = Stability in human fecal homogenate; type: in vitro ADME; details: 20% human fecal homogenate, 37° C., 20 μM
Stability in rat plasma = type: in vitro ADME; details: SD rat plasma, 37° C., 20 μM
[4] = Stability in simulated intestinal fluid (SIF); type: in vitro ADME; details: 100 fold dilution of standard SIF concentration, 37° C., 20 μM
How it was run: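 Peptides at 20 μM final were incubated at 37 °C in SIF (potassium phosphate with pancreatin, pH 6.8), and reactions were quenched with acetonitrile/1% formic acid at time points from 0 min to 24 h. Percent remaining relative to time 0 was determined by LC-MS/MS against an internal standard, and half-life came from a first-order decay fit.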

IL-23R = biological target: T1, IL-23R (Homo sapiens, UniProt Q5VWK5); assay: DB cells IL23R pSTAT3 cell assay (pStat3 HTRF); type: cell-based; details: IL-23R-expressing DB cells, IL-23 0.5 nM, 30 minutes
T1 construct: examines the levels of pSTAT3 in IL-23R-expressing DB cells when stimulated with IL-23; host or cells: DB cells
T1 sequence (Q5VWK5 24-629): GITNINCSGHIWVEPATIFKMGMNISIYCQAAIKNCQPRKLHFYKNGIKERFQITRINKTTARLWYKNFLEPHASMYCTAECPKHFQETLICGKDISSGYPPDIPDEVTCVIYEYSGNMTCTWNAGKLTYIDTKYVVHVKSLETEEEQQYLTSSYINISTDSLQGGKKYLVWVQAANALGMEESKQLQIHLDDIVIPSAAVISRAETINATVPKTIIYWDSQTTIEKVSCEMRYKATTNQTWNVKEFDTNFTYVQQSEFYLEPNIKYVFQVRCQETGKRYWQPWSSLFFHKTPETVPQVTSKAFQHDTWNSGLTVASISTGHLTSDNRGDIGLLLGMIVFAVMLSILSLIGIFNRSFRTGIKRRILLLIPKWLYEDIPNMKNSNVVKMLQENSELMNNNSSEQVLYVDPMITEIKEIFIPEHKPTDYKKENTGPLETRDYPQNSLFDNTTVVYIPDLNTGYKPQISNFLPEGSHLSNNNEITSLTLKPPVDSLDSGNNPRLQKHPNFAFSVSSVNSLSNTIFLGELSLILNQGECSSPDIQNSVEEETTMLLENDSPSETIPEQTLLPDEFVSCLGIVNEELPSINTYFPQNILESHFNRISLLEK
Text: Human ELISA indicates the IL23-IL23R competitive binding assay described below, Rat ELISA indicates the rat IL-23R competitive binding ELISA assay described below, and pStat3HTRF indicates the DB cells IL-23R pSTAT3 cell assay described below. The peptides depicted in Table E1A and Table E1B are cyclized via a disulfide bridge formed between two Pen residues in these peptides. The peptides depicted in Table E2 are cyclized via a thioether bond between the indicated amino acid residues. Table E2 provides an illustrative structure depicting thioether cyclization, which is indicated in the table by the term “cyclo,” with the cyclic region bracketed immediately following the term “cyclo.” For certain peptides, the residue Abu is present where indicated, whereas in other embodiments, e.g., those related to the non-cyclized form, the Abu may be referred to as a hSer(Cl) or homoSer residue.
DB Cells IL23R pSTAT3 Cell Assay
Where not shown or it is marked as “0”, data was not yet determined.

[5] = biological target: IL-23 stimulated phosphorylated STAT3 in PBMCs (Homo sapiens, UniProt Q5VWK5); assay: PBMC pSTAT3 assay; type: cell-based; details: PBMCs from healthy donors, IL-23 5 ng/mL, 30 minutes

Substance	t½: Monkey Feces anaerobic [1] [h]	IC50 [2] [nM]	t½: Human Feces anaerobic [3] [h]	t½: Rat Plasma EDTA (Stability in rat plasma) [h]	SIF t½ [4] [h]	IC50 (IL-23R) [nM]	IC50 [5] [nM]
Ac-[Abu]-Q-T-[W(7-Me)]-[Lys(Ac)]-[Cys]-Phe[4-(2-aminoethoxy)]-[2-Nal]-[a-MeLys]-[Lys(Ac)]-N-[(D)Lys]-[Sarc]-NH2 [Peptide 17]	11.1	2.63	24.5	>24.0	6.4	0.791	
Ac-[Abu]-Q-T-[W(7-Ph)]-[Lys(Ac)]-[Cys]-Phe[4-(2-aminoethoxy)]-[2-Nal]-[a-MeLys]-[Lys(Ac)]-N-[(D)Lys]-[Sarc]-NH2 [Peptide 18]	19.6	6.52	>24.0	>24.0	15.1	1.1	
Ac-[Pen]-N-T-W-[Lys(Ac)]-[Pen]-Phe[4-(2-aminoethoxy)]-[2-Nal]-[Acvc]-E-N-[3Pal]-[Sarc]-NH2 [Peptide 159]		0.0416				0.17	0.017
Ac-[Pen]-N-T-[W(7-Me)]-Q-[Pen]-Phe[4-(2-aminoethoxy)]-[2-Nal]-[THP]-E-N-[3Pal]-[Sarc]-NH2 [Peptide 108]	12.9		17.3	>24.0	>24.0	0.022	
Ac-[Pen]-N-T-[W(7-Me)]-[Cit]-[Pen]-Phe[4-(2-aminoethoxy)]-[2-Nal]-[THP]-E-N-[3Pal]-[Sarc]-NH2 [Peptide 107]	9		19.7	>24.0	20.9	0.029	
Ac-[Pen]-N-T-[W(7-Me)]-[Lys(Ac)]-[Pen]-Phe[4-(2-aminoethoxy)]-[2-Nal]-[THP]-E-N-H-[(D)NMeTyr]-NH2 [Peptide 57]	>24.0	1.68	>24.0	>24.0	>24.0	0.26	
Ac-[Pen]-N-T-[W(7-Me)]-[Lys(Ac)]-[Pen]-Phe[4-(2-aminoethoxy)]-[2-Nal]-[THP]-E-N-[3Pal]-[(D)NMeTyr]-NH2 [Peptide 121]		0.04		>24.0	>24.0	0.043	
Ac-[Pen]-N-T-[W(7-Me)]-[Lys(Ac)]-[Pen]-Phe[4-(2-aminoethoxy)]-[2-Nal]-[THP]-E-N-[3Quin]-[Sarc]-NH2 [Peptide 118]				>24.0	>24.0	0.057	
Ac-[Pen]-N-T-[W(7-Me)]-[Lys(Ac)]-[Pen]-Phe[4-(2-aminoethoxy)]-[2-Nal]-[THP]-E-N-[4Pal]-[Sarc]-NH2 [Peptide 115]				>24.0	>24.0	0.023	
Ac-[Pen]-N-T-[W(7-Me)]-[Lys(Ac)]-[Pen]-Phe[4-(2-aminoethoxy)]-[2-Nal]-[THP]-E-S-[3Pal]-[Sarc]-NH2 [Peptide 125]		0.1		>24.0	24.5	0.04	
Ac-[Pen]-N-T-[W(7-Me)]-[Lys(Ac)]-[Pen]-Phe[4-(2-aminoethoxy)]-[2-Nal]-[a-MeLys]-[Lys(Ac)]-N-[3Pal]-[(D)NMeTyr]-NH2 [Peptide 120]		0.0512		>24.0	>24.0	0.066	
Ac-[Pen]-N-T-[W(7-Me)]-[Lys(Ac)]-[Pen]-Phe[4-(2-aminoethoxy)]-[W(6-Me)]-[a-MeLys]-[Lys(Ac)]-N-H-[Sarc]-NH2 [Peptide 36]	14.8		>24.0	>24.0	>24.0	1.1	
Ac-[Pen]-N-T-[W(7-Me)]-[Lys(bAla)]-[Pen]-Phe[4-(2-aminoethoxy)]-[2-Nal]-[a-MeLys]-[Lys(Ac)]-N-H-[Sarc]-NH2 [Peptide 31]	17		5.4	>24.0	>24.0	0.42	
Ac-[Pen]-N-T-[W(7-Ph)]-[Cit]-[Pen]-Phe[4-(2-aminoethoxy)]-[2-Nal]-[THP]-E-N-[3Pal]-[Sarc]-NH2 [Peptide 126]				>24.0	>24.0	0.054	
Ac-[Pen]-N-T-[W(7-Ph)]-[Lys(Ac)]-[Pen]-Phe[4-(2-aminoethoxy)]-[2-Nal]-[THP]-E-N-[3Pal]-[bA]-NH2 [Peptide 116]				>24.0	22.5	0.029	
Ac-[Pen]-N-T-[W(7-Ph)]-[Lys(Ac)]-[Pen]-Phe[4-(2-aminoethoxy)]-[2-Nal]-[THP]-E-S-H-[Sarc]-NH2 [Peptide 59]	19.9	1.68	20.7	>24.0	>24.0	0.359	
Ac-[Pen]-N-T-[W(7-Ph)]-[Lys(Ac)]-[Pen]-Phe[4-(2-aminoethoxy)]-[2-Nal]-[a-MeLys]-[Lys(Ac)]-N-[3Pal]-[bA]-NH2 [Peptide 130]				>24.0	0.2	0.066	
Ac-[Pen]-S-T-[W(7-Me)]-[Lys(Ac)]-[Pen]-Phe[4-(2-aminoethoxy)]-[2-Nal]-[THP]-E-N-H-[Sarc]-NH2 [Peptide 55]	19.5	1.14	13	>24.0	21.4	0.203	
Ac-[Pen]-S-T-[W(7-Me)]-[Lys(Ac)]-[Pen]-Phe[4-(2-aminoethoxy)]-[2-Nal]-[THP]-E-N-[3Pal]-[Sarc]-NH2 [Peptide 132]		0.0456		>24.0	>24.0	0.054	
Ac-[Pen]-S-T-[W(7-Me)]-[Lys(Ac)]-[Pen]-Phe[4-(2-aminoethoxy)]-[2-Nal]-[THP]-E-S-H-[Sarc]-NH2 [Peptide 56]	12.6	4.33	7.9	>24.0	24.1	0.674	
Ac-[Pen]-S-T-[W(7-Me)]-[Lys(Ac)]-[Pen]-Phe[4-(2-aminoethoxy)]-[2-Nal]-[THP]-E-S-[3Pal]-[Sarc]-NH2 [Peptide 124]		0.0874		>24.0	18.5	0.023	
